Assay results: ChEMBL document CHEMBL1687923, “Discovery of N-hydroxyindole-based inhibitors of human lactate dehydrogenase isoform A (LDH-A) as starvation agents against cancer cells” (J Med Chem, 2011)

Molecular target: L-lactate dehydrogenase A chain (Homo sapiens, UniProt P00338)
Test: Inhibition of human LDH-A using pyruvate as substrate and NADH as cofactor at 125 uM after 5 mins by calorimetric assay relative to control

Ki: 138 µM
SMILES: NC(=O)C(=O)O [OXAMATE]
